An excerpt weighted towards active compounds, which were near 2.2% of everything screened.
GALK inh – blocks human galactokinase activity; Purified GALK, Kinase-Glo residual ATP luminescence; AID 1868; 0.007% of 270,000 active; Potency, µM (top dose mostly 57.5 µM), for inactives: top-dose activity change, negative = inhibition, most hits filed as inhibitors; P51570; further: potency means the concentration at half of the fitted maximal effect; on the % scale 0 is the no-effect control and ±100 the full control effect
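Luminescence from leftover ATP (Ultra-Glo luciferase/luciferin) served as read-out after a 1 h room-temperature reaction of 5 nM GALK with 35 uM ATP and 100 uM galactose.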
Nrf2 ARE act – Nrf2 pathway activation; AREc32 ARE-luciferase reporter (MCF7-derived line), luminescence, 24 h; Potency, µM (highest dose often 46.1 µM), for the others: at the highest dose activation, hits mostly activators; 0.31% of 410,000 active; further: potency means the concentration at half of the fitted maximal effect; % of control where 0% means no effect; nearly all actives have a fitted effect of over 65% in size
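AREc32 cells carrying an ARE-driven firefly luciferase, 1000 cells/well in OPTI-MEM with 5% FBS, dosed after overnight attachment and incubated 24 hr at 37 deg C. Steady-Glo luminescence read after 30 min at RT.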
A549 viability – A549 cytotoxicity, counter-screen for Nrf2 inhibitors; A549 ARE-Fluc cells, CellTiter-Fluor viability, 18-24 h; Potency, µM (series often up to 46 µM), without a hit: at the top dose activity change, negative = cytotoxicity, hits mostly inhibitors; 0.16% of 390,000 active; further: potency means the concentration at half of the fitted maximal effect; on the % scale 0 is the no-effect control and ±100 the full control effect
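A549 ARE-Fluc cells in 5% FBS OPTI-MEM, 5000 cells/well, rested 2 h then exposed to compounds in concentration-response for 18-24 h at 37 °C. Viability by CellTiter-Fluor fluorescence (Ex 405/Em 525) after 30 min; luciferase luminescence (BugLite, 15 min, RT) read afterwards.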
Nrf2 block – blocks Nrf2 signaling. A549 ARE-Fluc reporter, luciferase luminescence, 18-24 h. Potency, µM (series often up to 46 µM), for inactives: at the highest dose activity change, negative = inhibition, actives largely listed as inhibitors. 2.1% of 360,000 active. AID 504444; further: potency means the concentration at half of the fitted maximal effect; on the % scale 0 is the no-effect control and ±100 the full control effect; nearly all actives have a fitted effect of over 60% in size
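Nrf2 activity is the BugLite luminescence, read 15 min after reagent at room temperature, following CellTiter-Fluor cytotoxicity readout (30 min, 37C). Compound titrations were applied for 18-24 h to 5000 A549 ARE_Fluc cells/well in 5% FBS OPTI-MEM.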
miR-21 reporter – raises the signal of a miR-21 reporter | HeLa miR-21 FLuc reporter, luciferase, 48 h | Potency, µM (highest dose often 38.3 µM), for inactives: at the highest dose reporter change, positive = more light | 340,000 tested, under 10 active | AID 2288; active = well fitted rising curve with a large enough effect; inconclusive = small, poorly fitted or top-dose-only effect; inactive = no such curve, though single readings can be large or run the other way;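 also: % of control where 0% means no effect; miR-21 action dims this reporter so a rising signal means less miR-21 action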
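Using DMEM plus 10% FBS, HeLa miR-21-FLuc cells are incubated with test compounds (final up to about 40uM) for 48 hours; firefly luciferase signal is then imaged following reagent-mediated lysis.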
PI4K2A block – blocks human PI4K2A kinase activity; Q9BTU6; purified PI4K2A, ADP-Glo luminescence, 1 h; active compounds read low; activity change, negative = inhibition, % at 76.9 µM; 0.13% of 420,000 active; AID 1346378; in the data active means activity change below about -50%; inconclusive means mostly about -30% to -49%;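 further: -100% = wells without enzyme as full effect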
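Compounds are screened against recombinant PI4K2A using PI as substrate and ATP, the latter dispensed at 300 microM. Reactions run one hour at ambient temperature before ADP-Glo detection; full inhibition defined by wells lacking enzyme.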
* = called active by the depositor; u = inconclusive; x = no result; [ ] = another dose, or the depositor's remark. Unless noted, the call rests on the fitted dose curve; in most records, active means well fitted curve in the direction sought with a large enough effect; inconclusive means small, poorly fitted or top-dose-only effect, or another doubt; inactive means no such curve, though single readings can be large; an effect the other way counts as inactive or inconclusive.

Assay codes: A = GALK inh; B = Nrf2 ARE act; C = A549 viability; D = Nrf2 block; E = miR-21 reporter; F = PI4K2A block
(1) COc1ccc(-c2nc3ccccc3c(=O)n2Cc2ccccc2)cc1OCc1ccc(NC(C)=O)cc1
  A = x | B = x | C = 0.6% | D = 7.2% | E = x | F = x

(2) COC(=O)C1CN(Cc2cn(Cc3ccc(OC)cc3)nn2)CCS(=O)(=O)N1Cc1ccc(Cl)cc1 (stereo not drawn)
  A = x | B = x | C = x | D = x | E = x | F = 4.9

(3) O=C(CSc1nc2ccccc2nc1N1CCCCC1)NCc1ccc(Cl)cc1Cl
  A = x | B = x | C = x | D = x | E = x | F = 2.0

(4) Cc1csc(CNc2ncnc3ccc(-c4ccc5c(c4)OCCO5)cc23)c1
  A = x | B = 1.9% | C = 2.6% | D = -6.5% | E = x | F = -1.6

(5) Cc1cccc(CNc2ncnc3ccc(-c4ccc5c(c4)OCCO5)cc23)c1
  A = x | B = 3.8% | C = u | D = 14.6µM* | E = x | F = 1.0

(6) COc1ccc([N+](=O)[O-])cc1NCc1ccco1
  A = 0.8% | B = 11.2µM* | C = -7.0% | D = u | E = -28.2% | F = 6.9

(7) COc1ccc(S(=O)(=O)NCc2ccco2)c2ccccc12
  A = 6.0% | B = u | C = u | D = 3.66µM* | E = -8.0% | F = -10.3

(8) COc1ccc(/C=C/C(=O)O)cc1S(=O)(=O)NCc1ccco1
  A = 10.5% | B = -0.3% | C = 0.6% | D = -12.2% | E = -0.1% | F = -3.7

(9) COc1cc([N+](=O)[O-])ccc1NC(=O)NCc1ccco1
  A = 1.3% | B = 9.8% | C = -3.7% | D = -25.8% | E = -11.0% | F = -4.7

(10) COc1ccc(CN(CC#Cc2ccccc2)Cc2ccccc2)c(OC)c1
  A = x | B = x | C = x | D = x | E = x | F = -5.1

(11) Nn1c(SCC(=O)Nc2nccs2)nnc1-c1cc(-c2ccc(Cl)cc2)n[nH]1
  A = x | B = x | C = x | D = x | E = x | F = -6.1

(12) O=c1[nH]n(Cc2ccccc2)c(=O)c2ccccc12
  A = -4.9% | B = 5.01µM* | C = -3.0% | D = x | E = -61.5% | F = -4.2

(13) O=C(CSc1nnc(-c2cc3ccccc3cc2O)n1Cc1ccco1)c1ccc(F)cc1
  A = 2.6% | B = 8.5% | C = x | D = 23.1µM* | E = 24.7% | F = -1.3

(14) Cc1ccc(C(=O)CSc2nnc(CNc3ccc(C)cc3C)n2Cc2ccco2)cc1
  A = 0.2% | B = -0.4% | C = u | D = 23.1µM* | E = -1.5% | F = -4.7

(15) O=C(CSc1nc2ccccc2c(=O)n1Cc1ccco1)c1ccc(F)cc1
  A = 4.2% | B = 0.3% | C = 1.7%[1.84 µM] | D = 11.6µM* | E = -10.9% | F = 5.8

(16) COC(=O)c1cc(NC(=O)NC2CCCCN(Cc3cccc(Cl)c3)C2=O)cc(C(=O)OC)c1 (stereo not drawn)
  A = x | B = x | C = x | D = x | E = x | F = 7.0

(17) COc1ccc(C(C(=O)N(C)C2CCCC2)N(Cc2ccc(F)cc2)C(=O)c2sccc2Cl)cc1OC (stereo not drawn)
  A = x | B = x | C = x | D = x | E = x | F = -5.1

(18) O=C(Nc1ccc(Cl)cc1)N1CCN(c2ccc3nnc(-c4ccc(F)cc4)n3n2)CC1
  A = -1.8% | B = 3.4% | C = u | D = 20.6µM* | E = -5.2% | F = 5.4

(19) COc1ccc(/C(C)=N\NC(=O)c2ccco2)cc1
  A = x | B = x | C = x | D = x | E = x | F = -4.5

(20) C/C=C\C1=CCCC1Nc1ncnc2ccc(-c3c(C)noc3C)cc12 (stereo not drawn)
  A = x | B = x | C = 2.4% | D = u | E = x | F = x

(21) CCCCN(CCCC)S(=O)(=O)c1ccc(C(=O)Nc2nnc(CSC)o2)cc1
  A = 3.0% | B = -0.1% | C = -24.5% | D = 7.31µM* | E = -0.6% | F = 3.7

(22) CCCCN(CC)S(=O)(=O)c1ccc(C(=O)Nc2nnc(CSC)o2)cc1
  A = 3.1% | B = -2.0% | C = -21.0% | D = u | E = u | F = -18.9

(23) CCCN(CCC)S(=O)(=O)c1ccc(C(=O)Nc2nnc(CSC)o2)cc1
  A = -0.2% | B = -0.2% | C = -18.0% | D = 9.2µM* | E = 25.4% | F = 2.0

(24) O=C(c1ccc(Cl)cc1)C1CCN(C(=O)NC2CCCCC2)CC1
  A = 1.1% | B = -0.2% | C = -8.5% | D = 18.4µM* | E = 12.4% | F = 7.3

(25) O=C(Nc1ccc(Cl)cc1)C1CCN(C(=O)NC2CCCCC2)CC1
  A = -2.9% | B = -0.2% | C = -4.3% | D = -23.0% | E = -1.3% | F = 0.8

For reference, part of the list above:
Assay codes: A = GALK inh; B = Nrf2 ARE act; C = A549 viability; D = Nrf2 block; E = miR-21 reporter; F = PI4K2A block
(22) CCCCN(CC)S(=O)(=O)c1ccc(C(=O)Nc2nnc(CSC)o2)cc1
  A = 3.1% | B = -2.0% | C = -21.0% | D = u | E = u | F = -18.9

(23) CCCN(CCC)S(=O)(=O)c1ccc(C(=O)Nc2nnc(CSC)o2)cc1
  A = -0.2% | B = -0.2% | C = -18.0% | D = 9.2µM* | E = 25.4% | F = 2.0

(24) O=C(c1ccc(Cl)cc1)C1CCN(C(=O)NC2CCCCC2)CC1
  A = 1.1% | B = -0.2% | C = -8.5% | D = 18.4µM* | E = 12.4% | F = 7.3

(25) O=C(Nc1ccc(Cl)cc1)C1CCN(C(=O)NC2CCCCC2)CC1
  A = -2.9% | B = -0.2% | C = -4.3% | D = -23.0% | E = -1.3% | F = 0.8

(cont.)
Assay codes: A = GALK inh; B = Nrf2 ARE act; C = A549 viability; D = Nrf2 block; E = miR-21 reporter; F = PI4K2A block
(26) CCOC(=O)C1=C(c2ccccc2)N=c2s/c(=C\c3ccc(O)cc3)c(=O)n2C1c1cccs1 (stereo not drawn)
  A = -0.6% | B = -1.5% | C = u | D = 16.4µM* | E = 16.0% | F = -7.8

(27) Cc1cc(C)n(-c2ccc(C(=O)Nc3cc(S(=O)(=O)N(C)C)ccc3Cl)cc2)n1
  A = -2.0% | B = -0.7% | C = 0.8% | D = 18.4µM* | E = 13.3% | F = -3.5

(28) Cc1cc(C)n(-c2ccc(C(=O)Nc3cccnc3Cl)cc2)n1
  A = 1.5% | B = 0.0% | C = -8.9% | D = u | E = -10.4% | F = -2.9

(29) Cc1cccc(S(=O)(=O)NC2CCN(C#N)C2)c1 (stereo not drawn)
  A = x | B = x | C = -0.8% | D = -6.2% | E = x | F = x

(30) CC(C)(C)OC(=O)NCc1nnc(-c2cc3ccccc3[nH]2)o1
  A = x | B = x | C = 14.0% | D = u | E = x | F = x

(31) O=C1C=CC(=C(c2ccc(O)cc2)c2ccc(O)cc2)C=C1
  A = x | B = -3.0% | C = 23.1µM* | D = 13µM* | E = x | F = 0.4

(32) O=C(CCCC(=O)c1ccc(O)cc1)c1ccc(O)cc1
  A = x | B = -0.3% | C = -2.8% | D = u | E = x | F = -3.6

(33) CCc1ccc(NC(=O)c2cnn3c(C)cc(C)nc23)cc1
  A = x | B = x | C = 14.2% | D = u | E = x | F = x

(34) Cn1c(CSCc2ccc(F)cc2)nnc1SCC(=O)N1CCN(c2ccccc2)CC1
  A = 3.1% | B = -0.2% | C = -6.2% | D = 13µM* | E = 16.0% | F = -7.5

(35) O=C(CSCc1ccc(F)cc1)N1CCN(c2ccccc2)CC1
  A = -0.6% | B = 1.2% | C = -11.2% | D = u | E = -28.1% | F = 0.1

(36) Cn1c(CSCc2ccc(F)cc2)nnc1SCC(=O)Nc1nccs1
  A = 4.7% | B = 1.8% | C = u | D = 18.4µM* | E = 14.4% | F = 0.6

(37) C=CCN1[C@H](C#N)[C@@H](c2ccccc2)[C@H]1CO
  A = x | B = x | C = x | D = x | E = x | F = 6.4

(38) COc1ccc(C2CC(c3cccc(C(F)(F)F)c3)=NN2c2ccc(S(N)(=O)=O)cc2)cc1 (stereo not drawn)
  A = x | B = -2.3% | C = -12.9% | D = 23.1µM* | E = x | F = -0.1

(39) COc1ccc(C2CC(c3cccc(F)c3)=NN2c2ccc(S(N)(=O)=O)cc2)cc1 (stereo not drawn)
  A = x | B = -0.1% | C = -3.1% | D = u | E = x | F = 0.4

(40) O=C(Nc1ccc(OC(F)(F)F)cc1)Nc1c(-c2ccc(F)cc2)nc2ncccn12
  A = x | B = x | C = x | D = x | E = x | F = 1.0

(41) O=C1CCC[C@H]2C[C@H](NCc3ccc(F)cc3F)CC[C@]23CCCN13
  A = x | B = x | C = x | D = x | E = x | F = -4.9

(42) CCSc1nnc(NC(=O)CSc2nc3c(c(=O)n2C)SC(C)C3)s1 (stereo not drawn)
  A = 2.6% | B = -0.1% | C = -8.9% | D = u | E = -10.0% | F = 0.5

(43) CCSc1nnc(NC(=O)CSc2nc3c(c(=O)n2CC)SC(C)C3)s1 (stereo not drawn)
  A = 4.7% | B = -0.3% | C = -13.7% | D = 18.4µM* | E = 2.6% | F = -1.4

(44) CCCN1C(=O)c2ccccc2NC1c1ccc(Cl)c(Cl)c1 (stereo not drawn)
  A = -3.2% | B = 0.5% | C = -4.3% | D = -10.6% | E = u | F = -2.9

(45) CN1CC(c2ccc(Cl)c(Cl)c2)[C@@]2(COc3ccccc3C2=O)[C@@]12C(=O)Nc1ccccc12 (stereo partly drawn)
  A = 1.3% | B = 0.1% | C = u | D = 18.4µM* | E = -2.5% | F = -1.3

Assay outcomes as filed in PubChem.
